# From PubChem BioAssay
# In the library only some 0.43% were active in any assay of this set; here they are far more common.
# GIV-Gai inh: inhibitors of GIV peptide binding to Galpha-i3, primary screen, biochemical, fluorescence polarization, FITC-GIV GBA peptide, rat Galphai3; 90 min; stronger effect = lower value; scaled: aluminum fluoride 0%, vehicle 100%; percent of control (FP), % (no concentration beside the values); 210,000 tested, 0.42% active; AID 1224905, 2016;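 active = replicate mean at 85% of control or lower, very high polarization wells dropped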;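 note: wells of about 15 µL received 100 nL stock; the first replicate is given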
# HCMV UL50-53 inh: cytomegalovirus nuclear egress complex inhibition; inhibition, % (test concentration not listed); 190,000 tested, 0.15% active; HTRF UL50-UL53 interaction, normalized percent inhibition; in the data active = inhibition above about 27%, passing the limit was not always enough
# GIV Gai FP conf: GIV-Galpha-i3 inhibition, FP confirmation; AID 1259350; FITC-GIV peptide binding to Galphai3, fluorescence polarization; hits give low values; 580 tested, 38% active; fluorescence polarization, mP at 100 µM; shares compounds with GIV-Gai inh;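 active = inhibition score of 15 or more, meaning 100 minus mean polarization as percent of control over three replicates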;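 note: lower mP means peptide displaced from Galphai3 so more inhibition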
# GIV-Gai AS conf: GIV-Galpha-i3 inhibition, AlphaScreen confirmation. shares compounds with GIV-Gai inh. AlphaScreen Galphai3-GIV binding, purified proteins, 90 min; hits give low values. AlphaScreen counts at 100 µM. 580 tested, 39% active. AID 1259351;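 active = inhibition score at or above a set limit, where the score is 100 minus the three-replicate mean percent of control signal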
# An asterisk follows results filed as active; x = no result.
# Labels used below: A = GIV-Gai inh; B = HCMV UL50-53 inh; C = GIV Gai FP conf; D = GIV-Gai AS conf
mol: O=C(O)c1cc(NS(=O)(=O)c2ccc(F)cc2)cnc1N1CCCC1
  A = 77.1*; B = -56.9; C = 46.9*; D = 18634*
mol: CC(C)(C)c1ccc(S(=O)(=O)Nc2cnc(N3CCNCC3)c(C(=O)N3CCCC3)c2)cc1
  A = 105.5; B = x; C = x; D = x
mol: O=C(O)c1cc(NS(=O)(=O)c2ccc3c(c2)CCCC3)ccc1N1CCN(C2CCCCC2)CC1
  A = 107.3; B = -11.9; C = x; D = x
mol: O=C(O)c1cc(NS(=O)(=O)c2ccc3c(c2)CCCC3)cnc1N1CCC(N2CCCCC2)CC1
  A = 80.3*; B = -23.5; C = 49.8*; D = 27614
mol: CCC(=O)N1CCc2cc(N3CC(C(=O)NCC4CCCO4)CC3=O)ccc21 (configuration not stated)
  A = 107.6; B = x; C = x; D = x
mol: C=CC(=O)N1c2ccccc2-c2c(ssc2=S)C1(C)C
  A = 120.9; B = x; C = x; D = x
mol: COc1cc(/C=C2\SC(=O)N(C)C2=O)ccc1Oc1ccc([N+](=O)[O-])cc1[N+](=O)[O-]
  A = 96.3; B = -20.5; C = x; D = x
mol: COc1ccc(C=C2C(=O)NC(=O)NC2=O)cc1Oc1ccc([N+](=O)[O-])cc1[N+](=O)[O-]
  A = 86.7; B = 51.4*; C = 60.2; D = 15324*
mol: COc1cccc(NC(=O)N2CCN(Cc3nc4cc(C(=O)N5CCCC5)ccc4n3C)CC2)c1
  A = 104.8; B = x; C = x; D = x
mol: CCN(CCN(C)C)c1ncc(C(=O)O)cc1NS(=O)(=O)c1ccc(C(C)C)cc1
  A = 60.3*; B = -17.6; C = 41*; D = 35632
mol: CCN(CCN(C)C)c1ncc(NS(=O)(=O)c2cc(C)c(C)cc2C)cc1C(=O)O
  A = 58.3*; B = -41.8; C = 42.6*; D = 27195
mol: CCN(CCN(C)C)c1ncc(C(=O)O)cc1NS(=O)(=O)c1ccc(F)c(F)c1
  A = 60.6*; B = -13.0; C = 36.5*; D = 38193
mol: CCN(CC)c1ncc(NS(=O)(=O)c2cc(C)c(C)cc2C)cc1C(=O)O
  A = 107.2; B = -39.7; C = x; D = x
mol: CCCCN(C)c1ncc(C(=O)O)cc1NS(=O)(=O)c1cc(F)ccc1F
  A = 111.9; B = -45.6; C = x; D = x
mol: CN(C)c1ncc(C(=O)O)cc1NS(=O)(=O)c1ccccc1
  A = 49.2*; B = -38.1; C = 36.2*; D = 8377*

# Molecules above that contain a nitro group on carbon (two):
# Labels used below: A = GIV-Gai inh; B = HCMV UL50-53 inh; C = GIV Gai FP conf; D = GIV-Gai AS conf
mol: COc1cc(/C=C2\SC(=O)N(C)C2=O)ccc1Oc1ccc([N+](=O)[O-])cc1[N+](=O)[O-]
  A = 96.3; B = -20.5; C = x; D = x
mol: COc1ccc(C=C2C(=O)NC(=O)NC2=O)cc1Oc1ccc([N+](=O)[O-])cc1[N+](=O)[O-]
  A = 86.7; B = 51.4*; C = 60.2; D = 15324*

# Additional structures
# Labels used below: A = GIV-Gai inh; B = HCMV UL50-53 inh; C = GIV Gai FP conf; D = GIV-Gai AS conf
mol: CC(C)c1ccc(S(=O)(=O)Nc2cc(C(=O)O)ccc2N(C)C)cc1
  A = 102.8; B = 10.8; C = x; D = x
mol: CN1CCN(c2ccc(C(=O)O)cc2NS(=O)(=O)c2ccccc2)CC1
  A = 111.5; B = -8.9; C = x; D = x
mol: Clc1ccc(-c2noc(-c3cccnc3NCc3cccnc3)n2)cc1
  A = 99.8; B = 19.7; C = x; D = x
mol: Cc1ccc(S(=O)(=O)[C@H]2CS(=O)(=O)C[C@@H]2NCc2ccc(S(N)(=O)=O)cc2)cc1
  A = 105.1; B = 0.7; C = x; D = x
mol: Cc1cc(C)cc(S(=O)(=O)Nc2cc(C(=O)O)cnc2N(CC(C)C)CC(C)C)c1
  A = 116.7; B = -33.6; C = x; D = x
mol: CCN(CC)c1ncc(C(=O)O)cc1NS(=O)(=O)c1c(C)cc(C)cc1C
  A = 80.7*; B = -21.2; C = 71.1; D = 22183
mol: COc1cc(-c2nc3ccccc3c(=O)n2CC(=O)Nc2cccc(C)c2)cc(OC)c1OC
  A = 104.4; B = x; C = x; D = x
mol: O=C(O)c1cc(O)c(O)c(O)c1
  A = x; B = -19.9; C = x; D = x
mol: O=C(O)c1cc(O)[nH]c(=O)c1
  A = 78.3*; B = 82.7*; C = 42.1*; D = 10996*
mol: CN1C(=O)Cc2ccccc21
  A = 101.3; B = -2.8; C = x; D = x
mol: CN1C(=O)Cc2ccccc2C1=O
  A = 79.6*; B = 66.6*; C = 59.1*; D = 17985*
mol: Nc1cccc2c1C(=O)N(CCO)C2=O
  A = 74.8*; B = -65.1; C = 55.4*; D = 50751
mol: Nc1cccc2c1C(=O)N(CC(=O)N1CCc3ccccc31)C2=O
  A = x; B = -10.5; C = x; D = x
mol: Cc1ccc(N/C(SCc2cccc(Br)c2)=C(/C#N)C(=O)NCc2ccco2)cc1C
  A = 109.8; B = x; C = x; D = x
mol: COc1cc(/C=C(\C#N)c2nc3ccccc3[nH]2)ccc1OCc1ccccc1F
  A = 113.3; B = -47.6; C = x; D = x

# A different layout for 4 compounds above.
# Values run as follows: GIV-Gai inh | HCMV UL50-53 inh | GIV Gai FP conf | GIV-Gai AS conf
Clc1ccc(-c2noc(-c3cccnc3NCc3cccnc3)n2)cc1
→ 99.8 | 19.7 | x | x
Cc1ccc(S(=O)(=O)[C@H]2CS(=O)(=O)C[C@@H]2NCc2ccc(S(N)(=O)=O)cc2)cc1
→ 105.1 | 0.7 | x | x
Cc1cc(C)cc(S(=O)(=O)Nc2cc(C(=O)O)cnc2N(CC(C)C)CC(C)C)c1
→ 116.7 | -33.6 | x | x
CCN(CC)c1ncc(C(=O)O)cc1NS(=O)(=O)c1c(C)cc(C)cc1C
→ 80.7* | -21.2 | 71.1 | 22183

# (list continues)
smiles	GIV-Gai inh	HCMV UL50-53 inh	GIV Gai FP conf	GIV-Gai AS conf
COc1cc(/C=C(\C#N)c2nc3ccc(C)cc3[nH]2)ccc1OCc1ccc(C)cc1	106.0	-8.5	x	x
COc1c(Cl)cc(Cl)cc1/C=C(\C#N)c1nc2ccccc2[nH]1	46.2*	x	83.9	32566
COc1cccc(/C=C(\C#N)c2nc3ccc(C)cc3[nH]2)c1	69.5*	-37.0	79.7	34173
CCC(=O)Oc1ccc(/C=C(\C#N)c2nc3ccccc3[nH]2)cc1OC	88.7	-85.0	92.3	29157
N#C/C(=C/c1ccc(Cl)cc1Cl)c1nc2ccccc2c(=O)[nH]1	105.8	-22.4	x	x
CCOC(=O)Cn1cccc(S(=O)(=O)N2CCC(C)CC2)c1=O	103.4	x	x	x
COc1ccc(Br)c2c1OCCO2	x	-6.1	x	x
COc1ccc(-c2nnn(CN3CCCC3c3cccs3)n2)cc1OC (configuration not stated)	x	-45.2	x	x
COc1ccc(/C=C/C(=O)Nc2ccc(C)cc2C)cc1	x	-7.4	x	x
Nn1c(COc2ccccc2F)nnc1SCCN1C(=O)c2ccccc2C1=O	x	-15.1	x	x
O=C1C(Sc2ncn[nH]2)=C/C(=N/S(=O)(=O)c2ccc(Cl)cc2)c2ccccc21	8.2*	-8.3	17.5*	4487*
O=S(=O)(Nc1ccc(O)c(Sc2ncn[nH]2)c1)c1ccccc1	103.4	x	x	x
c1ccc(COn2c3c(c4c5nonc5ccc42)CCCC3)cc1	52.0*	-33.8	48.7*	18180*
CCOC(=O)c1c(C)n(OCc2ccccc2)c2ccc3nonc3c12	99.3	x	x	x
O=[N+]([O-])c1ccc2nc(N3CCCCC3)nc(-c3ccccc3)c2c1	105.3	2.3	x	x
O=C(CSc1nc(-c2ccccc2)cs1)N1CCN(S(=O)(=O)c2ccccc2)CC1	x	-23.5	x	x
O=C(CSc1nc(-c2ccccc2)cs1)N1CCOCC1	89.6	-2.5	73.1	49138
Cc1cc(=O)oc2c1ccc1occ(Nc3cccc([N+](=O)[O-])c3)c12	104.5	x	x	x
CCN1Cc2cccc(CNc3ccc(C)c(Cl)c3)c2C1	111.5	-0.2	x	x
Cc1ccccc1C(=O)Nc1n[nH]c(C(F)(F)F)n1	x	-10.0	x	x
CCOc1ccc(S(=O)(=O)NCC(c2ccc(N(C)C)cc2)N(C)C)cc1 (configuration not stated)	113.7	13.7	x	x
CCc1nc(N2CCc3ccccc32)c2onc(-c3ccc(C)cc3)c2n1	104.3	-16.7	x	x
O=C1NC(=O)/C(=C\c2cn(Cc3ccccc3F)c3ccccc23)N1	107.0	x	x	x
N#Cc1ccccc1Cn1cc(C=C2C(=O)NC(=O)NC2=O)c2ccccc21	63.5*	-20.5	79.9	40454
O=S(=O)(c1ccc2c(c1)OCCO2)N1CCCC1c1ccc(Cl)cc1 (configuration not stated)	103.5	-21.8	x	x

# The results go on.
smiles	GIV-Gai inh	HCMV UL50-53 inh	GIV Gai FP conf	GIV-Gai AS conf
O=C(NCC1CCCO1)c1ccc2ccnc(N3CCN(c4ccc(F)cc4)CC3)c2c1 (configuration not stated)	109.8	x	x	x
CN(N)c1cc(=O)n(C)c(=O)[nH]1	63.6*	-48.8	49*	32708
Cn1c(=O)cc(N2CCCCC2)[nH]c1=O	107.2	-15.6	x	x
CCn1c(=O)c(-c2noc(CCC(=O)Nc3ccc(F)cc3F)n2)nn(-c2ccccc2)c1=O	104.9	-28.2	x	x
O=C(/C=C/c1ccccc1)/C=C/c1ccccc1	79.7*	x	46.6*	17701*
O=C(O)/C=C/c1ccc(/C=C/C(=O)O)cc1	108.2	-33.0	x	x
CCOC(=O)C1CCN(Cn2nc(C3CC3)oc2=S)CC1	x	-20.5	x	x
CCC1CCCCN1C(=O)CSc1nc2ccccc2c(=O)n1CC1COc2ccccc2O1 (configuration not stated)	98.8	2.0	x	x
O=C(CN(CCO)CCO)N(C1CCCCC1)C1CCCCC1	104.6	3.6	x	x
Cn1c(SCC(=O)NC2C3CC4CC(C3)CC2C4)nnc1-c1cccnc1 (configuration not stated)	x	7.4	x	x
